The record followed here is ChEMBL document CHEMBL4028816, “Discovery of a potent inhibitor of MELK that inhibits expression of the anti-apoptotic protein Mcl-1 and TNBC cell growth” (Bioorg Med Chem, 2017).

Chains of the proteins cited; added tags and fusions are not shown. Lines headed by an entry give the natural chain unless they say otherwise; changes in a name come on top.
UniProt Q14680: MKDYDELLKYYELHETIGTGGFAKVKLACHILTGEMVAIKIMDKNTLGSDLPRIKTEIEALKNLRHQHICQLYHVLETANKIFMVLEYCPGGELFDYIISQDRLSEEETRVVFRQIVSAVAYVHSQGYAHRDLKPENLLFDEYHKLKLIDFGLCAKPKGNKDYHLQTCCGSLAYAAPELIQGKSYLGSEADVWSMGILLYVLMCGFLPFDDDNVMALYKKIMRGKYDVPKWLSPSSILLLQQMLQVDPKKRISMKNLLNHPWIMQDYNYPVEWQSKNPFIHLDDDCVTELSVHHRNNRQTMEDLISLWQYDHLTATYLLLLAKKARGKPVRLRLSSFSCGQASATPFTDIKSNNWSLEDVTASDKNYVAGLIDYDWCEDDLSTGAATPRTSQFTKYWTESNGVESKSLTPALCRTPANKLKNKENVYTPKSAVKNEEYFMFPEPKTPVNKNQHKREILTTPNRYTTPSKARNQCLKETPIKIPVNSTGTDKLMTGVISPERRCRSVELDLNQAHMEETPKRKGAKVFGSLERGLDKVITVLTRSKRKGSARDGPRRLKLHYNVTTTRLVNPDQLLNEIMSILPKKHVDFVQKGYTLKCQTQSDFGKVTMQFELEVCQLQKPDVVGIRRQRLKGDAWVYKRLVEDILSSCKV

What is called IC50 is the concentration that gives 50% inhibition. In general, Ki refers to the dissociation constant of the complex between target and ligand, obtained from inhibition or displacement.

The target of this experiment is Maternal embryonic leucine zipper kinase (Homo sapiens, UniProt Q14680). The experiment is described as follows: Inhibition of His6-tagged MELK catalytic domain (1 to 340 residues) (unknown origin) expressed in Escherichia coli BL21 (DE3) cells using Bcl-GL as substrate measured after 30 mins in presence of [gamma32P]ATP by liquid scintillation counting method.

On to `CN1CCN(CC(=O)N(C)c2ccc(N/C(=C3\C(=O)Nc4ccc(C(=O)N(C)C)cc43)c3ccccc3)cc2)CC1`, for which the IC50 amounted to 0.067 µM and the Ki worked out at 0.0088 µM.
